# According to PubChem BioAssay AID720648 (The Scripps Research Institute Molecular Screening Center, 2013):
# Chains of the proteins cited; added tags and fusions are not shown. Residues count along the entry.
# UniProt P78536, 215-824 limits assumed: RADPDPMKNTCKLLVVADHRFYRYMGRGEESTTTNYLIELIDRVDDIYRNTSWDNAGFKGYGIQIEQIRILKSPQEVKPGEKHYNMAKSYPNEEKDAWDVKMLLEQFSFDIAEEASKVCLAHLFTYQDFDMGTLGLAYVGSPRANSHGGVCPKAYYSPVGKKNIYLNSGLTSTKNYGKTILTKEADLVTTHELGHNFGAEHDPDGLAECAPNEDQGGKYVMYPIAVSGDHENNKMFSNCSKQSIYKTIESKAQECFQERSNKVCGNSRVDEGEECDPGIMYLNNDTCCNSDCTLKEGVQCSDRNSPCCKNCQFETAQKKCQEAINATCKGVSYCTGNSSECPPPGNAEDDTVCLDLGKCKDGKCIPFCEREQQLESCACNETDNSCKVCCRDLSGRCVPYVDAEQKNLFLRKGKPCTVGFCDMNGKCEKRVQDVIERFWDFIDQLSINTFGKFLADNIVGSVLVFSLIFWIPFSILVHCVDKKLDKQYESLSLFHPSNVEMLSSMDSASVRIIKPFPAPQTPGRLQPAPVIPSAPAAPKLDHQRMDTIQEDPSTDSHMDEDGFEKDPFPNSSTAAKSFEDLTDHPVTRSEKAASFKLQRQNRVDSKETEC
# This is a selection; strong and weak results do not stand in their true shares. Some of these compounds have results that are not shown, active ones among them. Calls of active or inactive are those of the source.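 Rule for the calls: active = inhibition above the mean of compounds lying between control limits plus 3 SD, set per campaign (cut at about 8.5% in these data); inactive = the rest.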
# Biological target: Disintegrin and metalloproteinase domain-containing protein 17 (Homo sapiens) (UniProt P78536)
# Experiment: inhibition of ADAM17 peptide cleavage – biochemical, QFRET, primary screen (AID 720648);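 note: 0% = DMSO-only wells as the low control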
# Conditions: recombinant ADAM17, EDANS/DABCYL FRET peptide cleavage; at 6.95 µM; stronger effect = higher value
row,Structure (SMILES),inhibition
1,CN(C)c1cccc(C(=O)NCC2(N(C)C)CCCCC2)c1,inactive: -11.9%
2,O=C(OCCN1CCCC1)C(O)(c1ccccc1)c1ccccc1,inactive: -3.35%
3,CC(C)Oc1ccc(C(=O)NCC2(N(C)C)CCCCC2)cc1,inactive: -10.1%
4,COc1ccc(Br)c(C(=O)NCC2(N3CCCCC3)CCCCC2)c1,inactive: -4.53%
5,C=C(C)C#CC(O)(C(=O)OC1CCN(C)CC1)c1ccccc1 (stereo unspecified),inactive: 1.32%
6,O=C(OC1CN2CCC1CC2)C(CO)(c1ccccc1)c1ccccc1 (stereo unspecified),inactive: -3.54%
7,O=C(NCC1(N2CCCCC2)CCCCC1)c1cccc(Cl)c1,inactive: 2.37%
8,COc1ccc(Cl)cc1C(=O)NCC1(N(C)C)CCCCC1,inactive: 0.69%
9,COc1cccc(C(=O)NCC2(N3CCCCC3)CCCCC2)c1,inactive: -6.48%
10,COc1cc(C(=O)NCC2(N(C)C)CCCCC2)c([N+](=O)[O-])cc1OC,inactive: -7.08%
11,CN(C)C1(CNC(=O)c2ccc(Br)cc2)CCCCC1,inactive: -5.6%
12,O=C(NCC1(N2CCCCC2)CCCCC1)c1cccc(Br)c1,inactive: -2.69%
13,CCN1CCCC(OC(=O)C2(O)c3ccccc3C=Cc3ccccc32)C1 (stereo unspecified),inactive: -4.75%
14,Cc1cc(C(=O)NCC2(N3CCCCC3)CCCCC2)ccc1[N+](=O)[O-],inactive: -0.94%
15,COc1ccc(C(=O)NCC2(N(C)C)CCCCC2)cc1,inactive: 1.38%
16,O=C(NCC1(N2CCCCC2)CCCCC1)c1cc(F)c(F)cc1Cl,inactive: -1.87%
17,C=CCN1CCN(CCOC(=O)C(O)(c2ccccc2)c2ccccc2)CC1,inactive: -0.88%
18,CN(C)c1ccc(C(=O)NCC2(N(C)C)CCCCC2)cc1,inactive: 0.24%
19,CN(C)C1CCCC1OC(=O)C(O)(c1ccccc1)c1ccccc1 (stereo unspecified),inactive: -0.89%
20,Cc1ccccc1C(=O)NCC1(N2CCCCC2)CCCCC1,inactive: 0.76%
21,Cc1ccc(C(=O)NCC2(N3CCCCC3)CCCCC2)cc1,inactive: 0.25%
22,CC(C)N1C(=O)CC2(CCN(CCOC(=O)C(O)(c3ccccc3)c3ccccc3)CC2)C1=O,inactive: -8.88%
23,COc1cc(SC)ccc1C(=O)NCC1(N(C)C)CCCCC1,inactive: -2.71%
24,CCN(CC)CC(C)C(C)OC(=O)C(O)(c1ccccc1)c1ccccc1 (stereo unspecified),inactive: -2.5%
25,CN1[C@@H]2CC[C@H]1CC(OC(=O)C(O)(c1ccccc1)c1ccccc1)C2 (stereo partly specified),inactive: -2.87%
26,O=C(NCC1(N2CCCCC2)CCCCC1)c1cc([N+](=O)[O-])ccc1Cl,inactive: -3.03%
